Source: US11433068B2, “Treatment of cancers having alterations within the SWI/SNF chromatin remodeling complex” (THE GENERAL HOSPITAL CORPORATION, priority 2016, dated 2022)

Test system: H3K27
Assay: Histone western blot of cells treated with EZH2 inhibitors (FIGS. 6A, 6B)
Format: cell-based
Conditions: UACC257 cell line
Text: The G9a and EZH2 methyltransferases are known to target H3K9 and H3K27, respectively.

## CCN(c1cc(-c2ccc(CN3CCOCC3)cc2)cc(C(=O)NCc2c(C)cc(C)[nH]c2=O)c1C)C1CCOCC1 [EPZ6438]
  methylation marks at H3K27 (histone western blot): selective and specific decrease in the methylation marks
